Measured values: patent publication US8642759B2, “Benzene sulfonamide thiazole and oxazole compounds” (GlaxoSmithKline LLC, priority 2008, dated 2014)

Protein sequences, listed by entry. Tags and fused reporters are not part of them. Residues count along the entry.
UniProt P15056, 2-766 V600E limits assumed: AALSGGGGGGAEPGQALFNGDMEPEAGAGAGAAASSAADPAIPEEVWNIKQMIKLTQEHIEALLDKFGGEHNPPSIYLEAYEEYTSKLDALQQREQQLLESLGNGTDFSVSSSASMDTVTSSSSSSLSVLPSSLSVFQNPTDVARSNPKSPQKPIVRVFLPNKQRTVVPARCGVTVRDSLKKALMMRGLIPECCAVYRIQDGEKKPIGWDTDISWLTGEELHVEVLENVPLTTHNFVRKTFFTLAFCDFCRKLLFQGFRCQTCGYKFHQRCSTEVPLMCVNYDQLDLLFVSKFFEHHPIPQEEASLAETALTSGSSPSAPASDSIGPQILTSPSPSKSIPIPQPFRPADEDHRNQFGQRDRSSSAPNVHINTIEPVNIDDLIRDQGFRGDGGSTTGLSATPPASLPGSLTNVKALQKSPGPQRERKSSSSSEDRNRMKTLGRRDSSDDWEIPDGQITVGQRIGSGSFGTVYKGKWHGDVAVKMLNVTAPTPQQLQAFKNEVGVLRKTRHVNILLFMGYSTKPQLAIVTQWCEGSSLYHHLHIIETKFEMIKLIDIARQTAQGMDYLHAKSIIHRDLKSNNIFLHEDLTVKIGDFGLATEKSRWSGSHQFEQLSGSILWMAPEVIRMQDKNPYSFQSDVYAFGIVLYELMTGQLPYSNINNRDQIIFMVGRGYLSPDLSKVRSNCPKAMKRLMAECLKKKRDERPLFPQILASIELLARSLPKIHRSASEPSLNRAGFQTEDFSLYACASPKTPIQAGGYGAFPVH

Target: His6-tagged BRAFV600E full-length (amino acids 2-766) (Homo sapiens, UniProt P15056, V600E)
Details: Table 1a; highest pIC50 for the one or more runs

## CC(C)c1nc(-c2ccc(F)c(NS(=O)(=O)c3c(F)cccc3F)c2)c(-c2ccnc(NCC(F)(F)F)n2)s1
  B-Raf Activity: ++ (indicates at least one pIC50 measurement greater than 6 against B-Raf but no measurement greater than pIC50 of 7)

## COCCCNc1nccc(-c2sc(N3CCOCC3)nc2-c2cccc(NS(=O)(=O)c3cc(F)ccc3F)c2F)n1
  B-Raf Activity: +++ (indicates at least one pIC50 measurement of greater than 7 against B-Raf)
